# “And” between values parts separate entries of the source, which are not always exact repeats. Equal values may be shown once. This is a selection; strong and weak results do not stand in their true shares. Records with an inconclusive call do not appear. The source made the active and inactive calls. Calls come from the whole dose curve; as a rule, active = well fitted inhibition curve with a large enough effect; inconclusive = small, poorly fitted or top-dose-only effect; inactive = no such curve, though single readings can be large or run the other way.
# Protein sequences, listed by entry. Tags and fused reporters are not part of them. Lines headed by an entry give the natural chain unless they say otherwise; changes in a name come on top.
# UniProt Q99549: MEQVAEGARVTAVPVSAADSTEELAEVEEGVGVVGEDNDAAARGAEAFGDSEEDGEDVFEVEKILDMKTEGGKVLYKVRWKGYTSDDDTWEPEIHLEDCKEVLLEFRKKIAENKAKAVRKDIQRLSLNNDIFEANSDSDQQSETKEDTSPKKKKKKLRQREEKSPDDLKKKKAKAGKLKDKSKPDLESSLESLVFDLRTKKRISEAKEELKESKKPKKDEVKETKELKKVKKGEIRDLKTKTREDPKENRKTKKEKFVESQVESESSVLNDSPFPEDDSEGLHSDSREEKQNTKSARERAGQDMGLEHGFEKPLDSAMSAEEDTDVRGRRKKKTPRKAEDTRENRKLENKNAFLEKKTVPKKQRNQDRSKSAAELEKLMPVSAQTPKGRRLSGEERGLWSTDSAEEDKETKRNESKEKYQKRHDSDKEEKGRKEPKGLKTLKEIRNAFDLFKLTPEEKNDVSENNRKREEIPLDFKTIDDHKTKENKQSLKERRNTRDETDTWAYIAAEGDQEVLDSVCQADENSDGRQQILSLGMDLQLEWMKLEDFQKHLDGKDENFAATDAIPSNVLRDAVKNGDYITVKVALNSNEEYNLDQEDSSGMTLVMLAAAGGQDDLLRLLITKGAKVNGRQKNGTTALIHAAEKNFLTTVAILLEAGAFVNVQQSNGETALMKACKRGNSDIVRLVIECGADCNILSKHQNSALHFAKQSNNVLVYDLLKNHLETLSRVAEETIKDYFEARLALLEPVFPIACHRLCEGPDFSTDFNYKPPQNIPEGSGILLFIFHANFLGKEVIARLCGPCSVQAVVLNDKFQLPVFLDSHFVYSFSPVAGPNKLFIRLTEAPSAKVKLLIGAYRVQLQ
# Biological target: M-phase phosphoprotein 8 (Homo sapiens) (UniProt Q99549)
# Test: qHTS Validation Assay for Inhibitors for MPP8 Chromodomain Interactions with Methylated Histone Tails (AID 488949); note: top concentration of the series differs between compounds; nearly all actives have a fitted effect of over 55% in size
# Details: AlphaScreen MPP8 binding to H3K9me3 peptide; at 57.1 µM (top of the series)
# Excerpt: As our understanding of epigenetics expands, it is becoming clear that players in this field are potential targets for drug development. This area of epigenetic therapy has established applications for the treatment of cancer and neurological diseases. We have been involved in this field for a number of years and have performed high-throughput screens to identify the first small molecule inhibitors of protein methyltransferases. These methyltransferases target multiple substrates, and thus regulate many arms of an epigenetic pathway. The methylation of different substrates often generates docking sites for effector proteins that harbor binding domains (chromo, tudor, PHD, MBT and ANK repeats). It has been proposed that the binding sites generated for different proteins by these post-translational modifcations mediate downstream effects on chromatin. Consistent with this theory, di- and tri-methylation of histone H3K9 facilitates the binding of heterochromatin protein HP1. The HP1 protein harbors a chromodomain that is responsible for the methyl-dependent interaction between HP1 and lysine 9 of histone H3. HP1 was first described in flies as a heterochromatin associated protein that can regulate gene silencing. It harbors a chromodomain that binds H3K9me3. In addition, it harbors a chromoshadow domain that interacts with a large number of proteins that are involved in heterochromatin formation and gene repression. There are three highly related HP1 isoforms. All three variants are associated with pericentric heterochromatin and it is not clear whether they have specific or redundant functions. MPP8 is also involved in the repression of gene in euchromatic regions (unpublished data) and like HP1 its chromodomain binds H3K9me3. MPP8 harbors an ankyrin repeat region that is likely involved in binding and recruiting interacting proteins with transcriptional repressive function, much like the chromoshadow domain of HP1 does. We hypothesize that by inhibiting specific protein-protein interactions we will be able to develop compounds that block a single arm of an epigenetic pathway. The specificity attained by blocking a single protein-protein interaction will be far greater than that attained by blocking the enzyme that regulates one of many interactions. Low-affinity protein-protein interactions (Kd in the single- to double-digit micromolar range) such as those discussed here have been very difficult to assay by traditional techniques such as fluorescence polarization or fluorescence resonance energy transfer. We have developed a sensitive chemiluminescence-based assay (Quinn, et al. 2009), which serves as the starting point for this project. The following is a validation assay to identify lead compounds that can block methyl-dependent protein-protein interactions (specifically MPP8), which can be used as probes to analyze these methyl-driven interactions and perhaps even developed into targeted epigenetic therapies. Assay Provider: Mark T. Bedford, MD Anderson Screening Center PI: Austin, C.P. Screening Center: NIH Chemical Genomics Center [NCGC]
# To each well, 2 uL of MPP8 protein (final 50 nM) and 1 uL biotinylated histone peptide trimethylated at Lys9 [b-H3(1-18)K9me3] (final 50 nM) was added in 1x PBS buffer, pH 7.4, containing 0.01% Tween-20 using a nanoliter dispenser. Formation of a protein-peptide complex proceeded at room temperature for 30 min. A Kalypsys pin-tool was employed to transfer 23 nL of library compound solution in DMSO to each well. Aurintricarboxylic acid (ATA) was used as an intraplate control with a 12-point titration in duplicate. Following a 30 min incubation of the protein-peptide complex with compounds at room temperature, a mixture of 40 ug/mL each streptavidin-coated donor and nickel chelate acceptor AlphaScreen beads (final 10 ug/mL) was added in a 1 uL dispense for a final volume of 4 uL. Plates were incubated protected from the light for 30 min at room temperature. […]
# % is set by controls: 0 for no effect and ±100 for the full control effect.
row,Compound,"activity change, negative = inhibition"
1,CN(C(=O)Cc1ccc(Cl)c(Cl)c1)[C@@H]1CC[C@]2(CCCO2)C[C@H]1N1CCCC1,inactive: 0.895%
2,CN(C(=O)Cc1ccccc1)[C@@H]1CC[C@]2(CCCO2)C[C@H]1N1CCCC1,inactive: -0.56%
3,CN(CCCl)Cc1cc(Cl)c(NC2=NCCN2)c(Cl)c1,inactive: 3.04%
4,CN(C(=O)Cc1ccc(Cl)c(Cl)c1)[C@@H]1CCCC[C@@H]1N1CCCC1,inactive: 12.5%
5,CN(C(=O)Cc1ccc(Cl)c(Cl)c1)[C@H]1CCCC[C@@H]1N1CCCC1,inactive: -4.38% and inactive: 7.58%

# Same assay, conditions: AlphaScreen MPP8 binding to H3K9me3 peptide; at 114 µM (top of the series)
row,Compound,"activity change, negative = inhibition"
1,CN(C(=O)Cc1ccc(Cl)c(Cl)c1)[C@@H]1CC[C@]2(CCCO2)C[C@H]1N1CCCC1,inactive: -5.19%
2,CN(C(=O)Cc1ccccc1)[C@@H]1CC[C@]2(CCCO2)C[C@H]1N1CCCC1,inactive: 3.31%
3,CN(CCCl)Cc1cc(Cl)c(NC2=NCCN2)c(Cl)c1,inactive: 0.71%
4,CN(C(=O)Cc1ccc(Cl)c(Cl)c1)[C@@H]1CCCC[C@@H]1N1CCCC1,inactive: 10.3%
5,CN(C(=O)Cc1ccc(Cl)c(Cl)c1)[C@@H]1CCCC[C@H]1N1CCCC1,inactive: -2.92%
6,CN(C(=O)Cc1ccc(Cl)c(Cl)c1)[C@H]1CCCC[C@@H]1N1CCCC1,inactive: -5.17% and inactive: -1.58%

# — PubChem BioAssay (NCATS)
